The source of these data is PubChem BioAssay AID1117279 (The Scripps Research Institute Molecular Screening Center, 2014).

This is a selection; strong and weak results do not stand in their true shares. The source made the active and inactive calls.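 How the source made its calls: active means average inhibition above the solvent-only control wells' mean plus 3 SD (cut at about 15% in these data); inactive means the rest.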

The nature of this assay: TTR promoter reporter inhibitors in hepatoma cells, counter-screen for TTR transcription activator project, cell-based, luminescence, HuH7 hepatoma (AID 1117279).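 Further: 0% = cells with DMSO only and 100% = cells with inhibitor control FD; inhibitors lower well luminescence so higher value means more inhibition.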 The settings on record: HuH7 TTR promoter-Gaussia luciferase reporter, at 16.7 µM, hits give high values.
Consider `Cc1ccc(OP(=O)(Nc2nccs2)Oc2ccc(C)cc2)cc1`, for which the inhibition is inactive: -8.02%. Take `CCOP(=O)(Nc1ccccc1)OCC`: the inhibition is inactive: -3.91%.
